Target: kappa opioid receptor (UniProt P41145)

Protein sequences, listed by entry. Tags and fused reporters are not part of them. Lines headed by an entry give the natural chain unless they say otherwise; changes in a name come on top.
UniProt P41145: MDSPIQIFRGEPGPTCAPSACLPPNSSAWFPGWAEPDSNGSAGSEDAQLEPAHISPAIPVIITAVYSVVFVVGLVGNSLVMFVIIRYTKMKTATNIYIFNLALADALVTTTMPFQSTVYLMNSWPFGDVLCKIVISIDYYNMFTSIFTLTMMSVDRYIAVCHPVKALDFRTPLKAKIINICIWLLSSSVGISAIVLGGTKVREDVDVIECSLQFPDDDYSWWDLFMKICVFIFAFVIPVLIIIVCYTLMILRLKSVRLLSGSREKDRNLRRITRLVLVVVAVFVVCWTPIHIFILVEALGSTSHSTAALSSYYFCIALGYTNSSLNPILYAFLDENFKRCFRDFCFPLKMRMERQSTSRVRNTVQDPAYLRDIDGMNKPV

Substance: Dynorphin A (peptide)
- pEC50 of the DMR response, CHO cells expressing the kappa opioid receptor: 9.39 -log10(M)

From paper PMC6117024, “NOP receptor pharmacological profile – A dynamic mass redistribution study” (PLoS ONE, 2018)
